Results from patent US9757455B2, “Oral therapeutic compound delivery system” (Johnson & Johnson Consumer Inc., priority 2005, dated 2017).

Assay: Solubility in water

Compound | amount of ibuprofen that 200 mL water would dissolve (at pH in the range 6.3-6.8) [mg] | Volume (mL) of water to dissolve dose (dose (mg) of each drug as in Table 78) [mL]
CC(C)Cc1ccc(C(C)C(=O)O)cc1 (centres unmarked) [Ibuprofen] | 826 | –
O=C1Nc2ccc(Cl)cc2C(c2ccccc2Cl)=NC1O (centres unmarked) [Lorazepam] | – | 31
